## scFv variants of Ab-14 (light chain) against a SARS-CoV-2 spike peptide

Data: MIT Lincoln Laboratory AlphaSeq set, Li et al. 2023, doi:10.1038/s41467-023-39022-2, as distributed in FLAb.

Target: peptide PDVDLGDISGINAS, taken from heptad repeat 2 (HR2) of SARS-CoV-2 spike.

Each scFv is VH, the linker GGGGSGGGGSGGGGS, VL, as in the parent Ab-14, and differs from it in the CDRs of the light chain only.
VH: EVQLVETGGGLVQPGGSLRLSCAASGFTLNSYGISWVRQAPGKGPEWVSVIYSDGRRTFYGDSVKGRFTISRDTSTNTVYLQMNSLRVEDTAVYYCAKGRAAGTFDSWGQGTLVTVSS
VL: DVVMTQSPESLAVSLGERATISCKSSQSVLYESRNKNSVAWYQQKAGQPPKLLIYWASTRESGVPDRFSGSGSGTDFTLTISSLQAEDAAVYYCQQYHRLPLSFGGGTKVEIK

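The parent was found by panning a naive human phage display library on the peptide. This is the validation round: designs drawn from the data on random variants, tested in the same kind of assay. Group labels follow the data file (Ctrl: baseline library sampled from a position-specific scoring matrix, with some repeated check sequences; En: ensemble of fine-tuned language models; GP: Gaussian process model; HC: hill climbing; Gen: genetic algorithm; Gibbs: Gibbs sampling; a sequence that several methods proposed may carry one label only). In AlphaSeq, yeast of one mating type display the scFv and yeast of the other type display the target. After mating in shaken culture at 30 °C for 16 h, diploids were selected and their barcode pairs sequenced. Each replicate has its own calibration line, from reference interactions of the BCL2 family. Mating was done six times.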

Variants are written as CDR1, CDR2 and CDR3 of the light chain (limits as in the source). Parent: KSSQSVLYESRNKNSVA, WASTRES, QQYHRLPLS.
The read-out is the apparent dissociation constant on a log10 scale (nM): the lower, the stronger.
The mean shown is taken over the replicates in which the pair was detected.
"no signal" marks a missing value. The strain was present, yet no cells mated with the target were sequenced in any replicate, which points to weak or no binding.
In the paper, a design with two or fewer of six values counts as a poor binder.
Values of this round are not directly comparable with the first-round values of the same sequences.
The parent sequence was in this pool as ten entries: three were never detected, three once, and four in most replicates, with averages from 0.34 to 2.37.
Background: pairings of all light chain designs with three empty control strains gave a value in 4% of cases (median 2.64, 5th percentile 1.59). Values in that range, when seen in few replicates, are hard to tell from nonspecific mating.

| mean log10 Kd (nM) | detected | CDR-L1 | CDR-L2 | CDR-L3 | group |
|---|---|---|---|---|---|
| 1.36 | 6/6 | KIGQMVNYESTHINAVA | QMSTREE | QQYFRLPLS | En_HC |
| 2.66 | 5/6 | KLLQTVMNETRQRNNVA | HMTTRED | QQYHRLPLS | En_HC |
| 1.14 | 2/6 | RISIPSDYYMENRSSIA | EMTVKEM | QQYQKLPLA | En_Gibbs |
| no signal | 0/6 | KSSQSVLYESRNKNSVA | QASWRES | QQDHRLPLS | Ctrl |
| 1.06 | 6/6 | KSSQHVDYESWNKNSVA | GASTRES | QQYHRLPLS | Ctrl |
| 0.01 | 6/6 | KYSGSYLGEQRNANSVA | NASTREE | QQYHRLPLS | GP_Gibbs |
| 1.28 | 4/6 | KSSQSELYESANKNSVA | NASQRES | QQYHRLPLS | GP_Gen |
| no signal | 0/6 | KSSQSVLYESRNKNGVA | WASTRES | QQTHRLHLS | Ctrl |
| 0.52 | 6/6 | KQSQSVLYESRNKNSVA | DASQRES | QQYHRLPLD | GP_HC |
| 0.22 | 6/6 | SLMQSVLYESRNKNSVA | HASKRED | QQYHRLPLS | GP_HC |
| -0.24 | 6/6 | KFSQSVLYESRNKNSVA | NASTRMQ | QQYHRLPLS | GP_Gen |
| 1.77 | 6/6 | KLSQSVPYESRNKNSVA | EASQRES | QQYHRLPLS | GP_Gen |
| -0.20 | 6/6 | KLQQSYLYESRNKNSVA | NASTRLS | QQYHRLPLS | GP_Gen |
| 0.26 | 6/6 | KSSFSQLYEDRNKNSVA | SATQRES | QQYHRLPLS | GP_Gibbs |
| 2.53 | 3/6 | SSSYSVLYESRNKNNVA | FASTRES | QSYHRLPLS | Ctrl |
| 1.06 | 6/6 | MISNVMNTLTRYGNNVA | DLTEREK | QQYFQLPLS | En_Gen |
| -0.13 | 6/6 | KLSQSTLYESRMKNSVA | NASQRES | QQYHRLPLS | GP_Gen |
| -0.12 | 6/6 | KTPQGVLYESRNKNSVA | EASVRES | QQYHRLPLS | GP_HC |
| no signal | 0/6 | KSSQSVLYESRFKNSVA | WASEPES | QQYHRLPLS | Ctrl |
| no signal | 0/6 | KSPQSVRYESRNKNSVA | GASTRES | QQVHRPPLS | Ctrl |
| 2.48 | 1/6 | MISQLYNMGSFAINSVA | QATERNE | QQYDRLPLI | En_Gen |
| 1.32 | 6/6 | NLVEMEGTNQTKHGNIA | SVDQRMS | QQYQRLPLI | En_Gibbs |
| 0.76 | 6/6 | KIQQEHVGNNKKMEAIA | QGDQRCH | QSYDRLPLS | En_Gibbs |
| 0.14 | 6/6 | KSSGMDLYESRNGNSVA | DASTRSD | QQYHRLPLS | GP_Gibbs |
| 0.73 | 6/6 | KSSQSVLMESLNKNSVA | AAMTRVS | QQYHRLPLS | Ctrl |
| 0.05 | 6/6 | KLSQSVLGMWRNKNSVA | NASTRES | QQYHRLPLS | GP_Gibbs |
| 0.69 | 6/6 | SISMLLNFESKVGNNVA | QMETRVN | QQYDRLPLT | En_Gen |
| -0.16 | 6/6 | KLSPSVGGESRNKNSVA | EASTREQ | QDYHRLPLS | GP_Gibbs |
| no signal | 0/6 | KSSWSVLYESRNKNSVA | WASTRES | QQYHRLPLS | Ctrl |
| 0.02 | 6/6 | KMPQSWWYESRMKWSVA | NASERES | QQYHRLPLS | GP_Gibbs |
| 0.11 | 6/6 | KFSQKVLYETRTKNSVA | NASTRES | QQYHRLPLS | GP_HC |
| 0.34 | 6/6 | KLSQSWLYESRNCNSVA | NASQRES | QQYHRLPLS | GP_Gen |
| 1.18 | 6/6 | KIQWYPLEFRGTISAVA | EAATRYN | QQYMRLPLM | En_Gibbs |
| 0.96 | 6/6 | NISHFLQNTMKNSNNVA | EMTMREV | QQYHHLPLS | En_Gen |
| -0.43 | 6/6 | KLSQSKLYESRNKNNVA | DASTRES | QQYHRLPLS | GP_Gen |
| -0.05 | 6/6 | KLQQSGLYESRNKNSVA | NASTRLS | QQYHRLPLS | GP_Gen |
| 0.29 | 6/6 | KAQQSCLYESRNQNSVA | SASQRLS | QQYHRLPLS | GP_Gibbs |
| -0.27 | 6/6 | KVSPSTWYESRNKNAVA | HASQRES | QQYHRLPLQ | GP_Gibbs |
| -0.41 | 6/6 | KMSQSAPMESRNANSVA | NASTRES | QQYHRLPLS | GP_Gibbs |
| -0.20 | 6/6 | KVEQSHLYESRNKNSVA | NASTRES | QQYHRLPLS | GP_Gen |
| -0.14 | 6/6 | KSSGSQLYESRNKNSVA | GASTRES | QQYHRLTLS | GP_HC |
| 0.51 | 6/6 | MFSQLFMYGSRNYNSVA | QASTREE | QQYHRLPLI | En_HC |
| no signal | 0/6 | KSSQSVLVECRNKNSVA | TASTRES | QQYTRLPLS | Ctrl |
| -0.23 | 6/6 | KISQSVLYESRNKNAVA | EASTRES | QQYHRLPLS | GP_Gen |
| 0.54 | 6/6 | TISGLIMMPSRAKNNVA | NTSTRYQ | QQYHRLPLS | En_HC |
| -0.39 | 6/6 | KLSQSVLYEDRNKNSVA | GASTRES | QQYHRLPLS | GP_Gen |
| 0.06 | 6/6 | KLMTSHLYESRMANNVA | AASTREE | QQYHRLPLS | GP_Gibbs |
| 0.32 | 6/6 | KCSQSVLYESRNKNAVA | DASTRES | QQYHWLPLS | GP_HC |
| 1.12 | 2/6 | NMQLQVRNGNNNKYNIA | AEMKREY | QQYNRLPLS | En_Gibbs |
| -0.02 | 6/6 | KIFQSVLYEDRQKNSVA | NASDRMS | QQYHRLPLS | GP_Gibbs |
| 0.18 | 6/6 | SIGGHMKSSMAHRNSVA | DMTNRED | QQYDRLPLS | En_Gen |
| 1.61 | 6/6 | SLYEMSYELSGKTHSVA | DNSTRGD | QQYFRLPLD | En_Gen |
| 1.81 | 3/6 | TIGQTLMSGMRNRSNVA | EVSERCN | QQYDRLPLL | En_Gen |
| 1.46 | 6/6 | KLVGPDDNDNQDMRAVA | DVNTLGN | QQYHRLPLG | En_Gibbs |
| 1.24 | 2/6 | KLRNEAIGWNRNEWSIA | DEHYRGD | QQYFHLPLL | En_Gibbs |
| 0.16 | 6/6 | KLSQSELYESRNKNSVA | EASYRES | QQYHRLPLS | GP_Gen |
| 1.62 | 2/6 | KSSQSVLYESRNKNHVA | WASTRVS | QQYHRLPLS | Ctrl |
| 0.35 | 6/6 | TVSQVHEMLSTNKNSVA | DMNTRES | QQYDRLPLS | En_HC |

Repeated from above, the 9 best binders with a signal in all replicates:

| CDR-L1 | CDR-L2 | CDR-L3 | group | mean log10 Kd (nM) | detected |
|---|---|---|---|---|---|
| KLSQSKLYESRNKNNVA | DASTRES | QQYHRLPLS | GP_Gen | -0.43 | 6/6 |
| KMSQSAPMESRNANSVA | NASTRES | QQYHRLPLS | GP_Gibbs | -0.41 | 6/6 |
| KLSQSVLYEDRNKNSVA | GASTRES | QQYHRLPLS | GP_Gen | -0.39 | 6/6 |
| KVSPSTWYESRNKNAVA | HASQRES | QQYHRLPLQ | GP_Gibbs | -0.27 | 6/6 |
| KFSQSVLYESRNKNSVA | NASTRMQ | QQYHRLPLS | GP_Gen | -0.24 | 6/6 |
| KISQSVLYESRNKNAVA | EASTRES | QQYHRLPLS | GP_Gen | -0.23 | 6/6 |
| KLQQSYLYESRNKNSVA | NASTRLS | QQYHRLPLS | GP_Gen | -0.20 | 6/6 |
| KVEQSHLYESRNKNSVA | NASTRES | QQYHRLPLS | GP_Gen | -0.20 | 6/6 |
| KLSPSVGGESRNKNSVA | EASTREQ | QDYHRLPLS | GP_Gibbs | -0.16 | 6/6 |